Reference: patent US11020395B2, “Cycloalkyl substituted triazole compounds as agonists of the APJ receptor” (AMGEN INC., priority 2016, dated 2021)

By UniProt entry, the sequences of proteins in these tests, tags left out.
UniProt P35414, whole entry: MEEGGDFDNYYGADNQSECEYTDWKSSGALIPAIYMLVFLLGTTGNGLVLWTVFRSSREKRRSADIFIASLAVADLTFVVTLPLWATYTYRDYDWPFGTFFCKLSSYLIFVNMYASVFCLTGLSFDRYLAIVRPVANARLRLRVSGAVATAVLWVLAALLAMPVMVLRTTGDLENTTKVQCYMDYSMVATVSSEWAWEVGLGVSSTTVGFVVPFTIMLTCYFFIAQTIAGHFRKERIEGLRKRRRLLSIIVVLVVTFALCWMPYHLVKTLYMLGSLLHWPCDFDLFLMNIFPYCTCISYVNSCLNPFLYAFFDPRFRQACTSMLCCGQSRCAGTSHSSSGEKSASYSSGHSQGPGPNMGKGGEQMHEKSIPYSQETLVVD

Molecular target: APJ receptor (Homo sapiens (Human), UniProt P35414)
Assay: [35S]GTPγS binding assay on membranes from CHO cells stably expressing human APJ receptor
Assay type: biochemical
Conditions: read-out: Activity hAPJ SPA EC50 IP, [35S]GTPγS SPA
Procedure: [^35S]GTPγS Binding The human APJ receptor was cloned by polymerase chain reaction and the gene encoding the receptor was subcloned in pFLAG-CMV™-3 expression vector (Sigma, Saint Louis, Mo. USA) in-house at Amgen. A GTPγS binding assay was performed on membranes prepared from CHO cells stably expressing human APJ receptor. The optimum experimental conditions for the concentrations of GDP, MgCl2, and NaCl in the assay buffer were initially determined. […] Incubation was at RT for 90 min and the microplate was read using a ViewLux™ ultra HTS Microplate Imager (PerkinElmer, Inc.). All the results presented are means of several independent experiments and analyzed by non-linear regression methods using the commercially available program Prism (GraphPad, San Diego, Calif.) providing the EC50 values detailed in Table 25.

SMILES | EC50
COc1ncnc(OC)c1-n1c(NS(=O)(=O)[C@@H](C)[C@H](OC)c2ncc(Cl)cn2)nnc1C1CCC(OC)CC1 (some centres unmarked) | 19 nM
COc1cccc(OC)c1-n1c(NS(=O)(=O)[C@@H](C)[C@H](OC)c2ncc(Cl)cn2)nnc1C1CCC(OC)C1 (single isomer, unassigned) | 15 nM
